Reference: ChEMBL document CHEMBL1140610, “Matrix metalloproteinases (MMPs): chemical-biological functions and (Q)SARs” (Bioorg Med Chem, 2007)

Sequences of proteins named here, by UniProt entry; tags and fusion partners are left off. A change or cut given only in a name is not applied to a line headed by its entry.
UniProt P14780: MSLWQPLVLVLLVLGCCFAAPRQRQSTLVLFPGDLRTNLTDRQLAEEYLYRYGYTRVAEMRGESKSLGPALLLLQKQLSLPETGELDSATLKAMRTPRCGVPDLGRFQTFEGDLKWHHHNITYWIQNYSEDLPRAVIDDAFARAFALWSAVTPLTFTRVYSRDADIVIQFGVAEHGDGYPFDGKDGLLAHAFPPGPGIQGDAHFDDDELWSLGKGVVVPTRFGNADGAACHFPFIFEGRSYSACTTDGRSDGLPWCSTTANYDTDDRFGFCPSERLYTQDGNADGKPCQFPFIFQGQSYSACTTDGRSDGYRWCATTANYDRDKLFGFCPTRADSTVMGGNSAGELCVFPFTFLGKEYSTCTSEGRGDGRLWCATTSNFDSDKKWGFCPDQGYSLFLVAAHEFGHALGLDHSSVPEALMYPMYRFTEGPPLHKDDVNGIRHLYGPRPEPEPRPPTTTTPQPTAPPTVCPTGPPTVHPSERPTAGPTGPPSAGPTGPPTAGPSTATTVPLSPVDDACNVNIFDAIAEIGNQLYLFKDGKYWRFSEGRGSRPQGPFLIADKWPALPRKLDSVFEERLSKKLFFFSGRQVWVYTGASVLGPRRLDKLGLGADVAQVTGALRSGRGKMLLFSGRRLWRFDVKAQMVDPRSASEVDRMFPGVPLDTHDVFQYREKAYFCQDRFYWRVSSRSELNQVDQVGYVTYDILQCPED

Key:
Interstitial collagenase = target: T1, Interstitial collagenase (Homo sapiens, UniProt P03956); conditions: read-out: log(1/IC50) (converted)
T1 sequence (P03956 whole entry): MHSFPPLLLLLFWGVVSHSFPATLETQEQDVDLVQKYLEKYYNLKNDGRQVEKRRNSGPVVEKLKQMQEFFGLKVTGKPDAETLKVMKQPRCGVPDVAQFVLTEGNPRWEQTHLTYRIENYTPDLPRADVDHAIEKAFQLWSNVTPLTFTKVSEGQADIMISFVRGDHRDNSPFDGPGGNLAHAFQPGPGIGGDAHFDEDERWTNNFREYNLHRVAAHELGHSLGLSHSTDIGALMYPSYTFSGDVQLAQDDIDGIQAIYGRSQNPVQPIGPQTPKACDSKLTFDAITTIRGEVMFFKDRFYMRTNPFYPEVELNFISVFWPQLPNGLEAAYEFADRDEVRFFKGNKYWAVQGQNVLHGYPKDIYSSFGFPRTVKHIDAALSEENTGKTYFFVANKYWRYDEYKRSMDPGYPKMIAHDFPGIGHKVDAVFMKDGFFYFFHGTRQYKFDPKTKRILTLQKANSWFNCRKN

Collagenase 3 = Collagenase 3 (Homo sapiens, UniProt P45452)
[1] = target: Matrix metalloproteinase-9 (Homo sapiens, UniProt P14780)

## C[C@@]1(O)CCCN(S(=O)(=O)c2ccc(OCc3ccccc3Cl)cc2)C1C(=O)NO (some centres not stated)
Interstitial collagenase
  IC50: 269 nM

## COc1ccc(S(=O)(=O)N(Cc2ccccc2)c2ccccc2C(=O)NO)cc1
Collagenase 3
  log(1/IC50): 6.26

## COc1ccc(S(=O)(=O)N(Cc2ccccc2)c2c(OC)cccc2C(=O)NO)cc1
Collagenase 3
  log(1/IC50): 6.86

## Cc1cc(F)ccc1COc1ccc(S(=O)(=O)N2CCC[C@@](C)(O)C2C(=O)NO)cc1 (some centres not stated)
Interstitial collagenase
  IC50: 219 nM

## COc1ccc(S(=O)(=O)N(Cc2ccccc2)c2c(C(=O)NO)cccc2C(F)(F)F)cc1
[1]
  log(1/IC50): 7.57

## COc1ccc(S(=O)(=O)N(Cc2ccccc2)c2c(C)cccc2C(=O)NO)cc1
[1]
  log(1/IC50): 7.64

## Cc1ccc(F)cc1COc1ccc(S(=O)(=O)N2CCC[C@@](C)(O)C2C(=O)NO)cc1 (some centres not stated)
Interstitial collagenase
  IC50: 603 nM
